ChEMBL document CHEMBL1145905, “Design and synthesis of novel dimeric morphinan ligands for kappa and micro opioid receptors” (J Med Chem, 2003)

Protein sequences, listed by entry. Tags and fused reporters are not part of them. Lines headed by an entry give the natural chain unless they say otherwise; changes in a name come on top.
UniProt P41145: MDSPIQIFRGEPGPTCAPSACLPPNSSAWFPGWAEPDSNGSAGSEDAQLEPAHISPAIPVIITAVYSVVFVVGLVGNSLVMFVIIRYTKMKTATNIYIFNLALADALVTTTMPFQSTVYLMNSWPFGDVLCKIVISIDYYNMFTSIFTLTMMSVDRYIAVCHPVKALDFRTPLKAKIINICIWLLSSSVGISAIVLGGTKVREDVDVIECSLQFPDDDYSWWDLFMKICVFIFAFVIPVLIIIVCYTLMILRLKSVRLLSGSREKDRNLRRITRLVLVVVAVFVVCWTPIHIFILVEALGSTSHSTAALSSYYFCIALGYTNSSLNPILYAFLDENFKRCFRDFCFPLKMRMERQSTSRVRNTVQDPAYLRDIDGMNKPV

Biological target: Kappa-type opioid receptor (Homo sapiens, UniProt P41145)
Test: Percent maximal stimulation in stimulating [35S]-GTP-gamma S binding mediated by the Opioid receptor kappa 1 in chinese Hamster Ovary (CHO) cell membranes was determined
Type: functional

Which Emax does the source give for Oc1ccc2c(c1)[C@@]13CCCC[C@H]1[C@@H](C2)N(CC1CC1)CC3 [CYCLORPHAN] here?
Its Emax is 90%.
